Values of other authors in patent US7250518B2, “Nicotinamide acids, amides, and their mimetics active as inhibitors of PDE4 isozymes” (Pfizer Inc., priority 2001, dated 2007).

Legend:
[1] = tested on: antigen-induced bronchoconstriction; conditions: guinea pig, in vivo
PDE4 = conditions: read-out: IC50 as PDE4 inhibitor

COc1ccc(C(=O)Nc2c(Cl)cncc2Cl)c2cccnc12 [Example D4418]
Inhibition of antigen-induced bronchoconstriction [1]: active | IC50 (PDE4): 200 nM
